Results as given in US20250041438A1, “ANTIBODY-DRUG CONJUGATE” (NOVELTY NOBILITY INC., priority 2022, published 2025).

System: GIST-T1 cells
Format: in vivo

Cc1ccc(NC(=O)c2ccc(CN3CCN(C)CC3)cc2)cc1Nc1nccc(-c2cccnc2)n1 [imatinib, reference compound]
tumor growth compared to the control (vehicle), in words (day 56, imatinib 100 mg/kg p.o.): inhibited tumor growth
tumor course after treatment was discontinued (imatinib alone 100 mg/kg p.o.): the tumor recurred after treatment was discontinued
